# Values of other authors, collected in patent US20070031341A1, “Methods of delivering therapeutics to the brain” (priority 2005, published 2007).
# Test system: cerebellar granule cells exposed to MPP+ neurotoxin
# Conditions: 50 U/ml catalase; about 50% without; cited from earlier work
substance,measurement,value
catalase,in vitro viability of cerebellar granule cells exposed to MPP+,about 75%
